Target: recombinant pneumococcal GAPDH (glyceraldehyde 3-phosphate dehydrogenase) fused to a His6-tag at the N-terminus (S. pneumoniae) (UniProt Q8CWN6)
Assay: ELISA; 100 ug peptidoglycan-only pneumococcal sacculi coated on 96-well plate; GAPDH 10 ug/ml in TBS-C (50 mM Tris pH 8.0, 100 mM NaCl, 2 mM CaCl2) 1 h RT, or none; normal human serum 1:25 1 h RT; bound C1q detected with rabbit anti-C1q, chemiluminescence

By UniProt entry, the sequences of proteins in these tests, tags left out. Residues count along the entry.
UniProt P02745, 23-245: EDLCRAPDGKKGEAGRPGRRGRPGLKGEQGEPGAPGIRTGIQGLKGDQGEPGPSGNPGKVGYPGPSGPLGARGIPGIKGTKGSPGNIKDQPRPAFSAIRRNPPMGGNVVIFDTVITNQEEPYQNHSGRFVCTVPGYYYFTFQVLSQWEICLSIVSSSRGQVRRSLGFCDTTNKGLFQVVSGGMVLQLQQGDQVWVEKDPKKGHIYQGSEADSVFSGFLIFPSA
human complement factor C1q, UniProt P02746, 28-253: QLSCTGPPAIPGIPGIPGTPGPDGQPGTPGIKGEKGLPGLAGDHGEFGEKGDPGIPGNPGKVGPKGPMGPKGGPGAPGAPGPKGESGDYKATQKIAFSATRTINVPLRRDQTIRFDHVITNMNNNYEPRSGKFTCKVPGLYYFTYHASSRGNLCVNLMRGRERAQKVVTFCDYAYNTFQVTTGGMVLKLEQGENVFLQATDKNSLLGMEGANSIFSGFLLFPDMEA
human complement factor C1q, UniProt P02747, 29-245: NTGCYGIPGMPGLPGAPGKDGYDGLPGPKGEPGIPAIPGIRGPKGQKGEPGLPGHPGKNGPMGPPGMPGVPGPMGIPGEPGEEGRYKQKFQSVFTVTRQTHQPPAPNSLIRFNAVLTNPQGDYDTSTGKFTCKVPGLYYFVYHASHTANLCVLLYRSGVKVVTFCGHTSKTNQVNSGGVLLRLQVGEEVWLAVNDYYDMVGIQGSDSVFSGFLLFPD

With “human complement factor C1q (from UniProt P02745 23-245; P02746 28-253; P02747 29-245) (complex)” the fold C1q deposition against sacculi without GAPDH was 5 fold.

Reference: article PMC4415926
